From PubChem BioAssay
This is a sample that favours compounds with a hit; in the whole collection about 2.2% have one here.
PDI turbidity – blocks human protein disulfide isomerase activity; P07237; PDI insulin aggregation turbidity, A650, 90 min; inhibition, % at 10 µM; 0.052% of 350,000 active; AID 588391;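 active means mean inhibition across replicates of 30% or more, whatever share of single replicates reach that level; inconclusive means mean inhibition below 30% while every single replicate reaches 30%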
FGF22 binding – shifts melting point of recombinant human FGF22 | 1.5% of 340,000 active | activity (Tm shift, normalised), % at 9.99 µM | recombinant FGF22 thermal shift, SYPRO orange fluorescence; percent of sucrose octasulfate shift, DMSO zero;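 active means mean Tm shift, scaled 0 neutral to 100 positive control, at about 1.3% or above, every replicate too, limit read from the data; inconclusive means no clear call, values can overlap the other calls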
UUG fidelity – alters start codon recognition fidelity in yeast; S. cerevisiae UUG-firefly luciferase reporter, luminescence/redox ratio; activity score, % at 18.7 µM; hit rate 0.13% among 350,000;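 active = replicate mean at a twofold rise or more, about +100% in these data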;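 also: firefly luciferase made from a UUG start codon reports start codon fidelity; reporter light over untreated wells divided by growth signal over untreated wells; some hits fall short of that in this replicate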
S100A4 inh HTS – S100A4-myosin IIA interaction inhibition | P26447 | 0.14% of 360,000 active | inhibition, % at 10.7 µM | S100A4/TAMRA-MyoIIA peptide fluorescence polarization | AID 652163;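 active means mean inhibition of at least 70% across replicates, with every replicate also reaching that level; inconclusive means mean inhibition reaches 70% but some replicates fall short; inactive means mean inhibition below 70%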
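incubation = readout 5 min after mixing, signal stable up to 60 min | system = S100A4 monomer protein | buffer or medium = HEPES pH 7.2 with CaCl2, KCl, NaCl, DTT, Triton | benchmarks = neutral control DMSO, positive control TFP | also added = fluorescent myosin IIA peptide, 5 nM | compound dosing = one concentration per compound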
ERp5 inh – inhibitors of human ERp5; Q15084; ERp5 insulin aggregation, absorbance 650 nm, 90 min; inhibition, % at 9.99 µM; 0.05% of 350,000 active; AID 651711;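 active means mean replicate inhibition above about 25%, with every replicate also reaching it, limit read from the data, passing the limit was not always enough; inconclusive means only one of those two criteria met; inactive means neither criterion met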
SIRT5 block – blocks human SIRT5 desuccinylation of peptide; Purified SirT5, succinyl-peptide AMC, trypsin-coupled fluorescence; inhibition, % at 15 µM; 1.1% of 330,000 active; in the data active means inhibition above about 15%; inconclusive means no clear call, values can overlap the other calls
A number is an active result; . = inactive; ? = inconclusive; / = no result.

SMILES	PDI turbidity	FGF22 binding	UUG fidelity	S100A4 inh HTS	ERp5 inh	SIRT5 block
C[C@H](CO)N1C[C@H](C)[C@H](CN(C)C)Oc2c(NC(=O)Nc3cccc4ccccc34)cccc2C1=O	/	.	/	?	.	.
CCC(=O)N(C)C[C@@H]1[C@@H](c2ccc(C3=CCCCC3)cc2)[C@H](CO)N1C(C)=O	/	.	.	/	.	.
CC(=O)CCC(=O)OCC(=O)Nc1ccc(SC(F)F)cc1	.	43	/	.	.	.
O=C(COc1ccccc1C(=O)O)Nc1ccc(SC(F)F)cc1	.	43	.	.	.	.
FC(F)Sc1ccc(NC(=S)NC(c2ccccc2)c2ccccc2)cc1	.	.	/	.	.	.
FC(F)Sc1ccc(NC(=S)NCc2ccccc2)cc1	.	43	.	.	.	.
CC(C)=CC(=O)OCC(=O)Nc1ccc(SC(F)F)cc1	.	44	/	.	.	.
COc1ccc(CN(C)C[C@H]2OCCCC[C@@H](C)Oc3ccc(NC(=O)c4ccccc4)cc3C(=O)N([C@H](C)CO)C[C@H]2C)cc1	/	/	.	.	.	.
O=S(=O)(NCc1ccc2c(c1)OCO2)c1ccccc1F	.	.	.	.	.	22
C=CCSc1ncc(C(=O)OCC)c(N)n1	.	43	/	.	.	.
O=C(CCc1nc2ccccc2c(=O)[nH]1)Nc1nc(-c2cccs2)cs1	.	.	/	.	.	.
CN(c1ccc(-c2csc(NC(=O)CCCc3nc4ccccc4c(=O)[nH]3)n2)cc1)S(C)(=O)=O	.	44	.	.	.	/
CCC(=O)Nc1ccc2c(c1)C(=O)N(C)C[C@H](OC)[C@@H](C)CN(C(=O)CC1CC1)[C@H](C)CO2	/	.	.	.	.	.
C=CCN(Cc1nc(-c2ccc(OC)cc2)no1)C(=O)c1ccc2c(c1)OCO2	.	.	.	.	.	17
COc1ccc(-c2noc(CN(C(=O)c3ccc4c(c3)OCO4)C(C)C)n2)cc1	.	.	.	.	.	.
Cc1noc(C)c1S(=O)(=O)N(C)C[C@@H]1Oc2ccc(NC(=O)CCN3CCOCC3)cc2CC(=O)N([C@@H](C)CO)C[C@H]1C	/	/	/	.	.	.
COc1ccc2c3c(n(C)c2c1)[C@@H](CO)N(Cc1ccncc1)CC31CN(C(=O)C2CCCC2)C1	/	.	/	.	.	.
CC(C(=O)NC(N)=O)N1C(=O)NC(c2ccccc2)(c2ccccc2)C1=O (stereo unspecified)	.	.	.	.	.	19
NC(=O)NC(=O)CN1C(=O)NC(c2ccccc2)(c2ccccc2)C1=O	.	.	.	.	.	.
COc1cc(/C=C/c2cc(C(F)(F)F)[nH]c(=O)n2)cc(OC)c1OC	.	.	/	.	.	/
COc1cc(OC)c(OC)cc1/C=C/c1cc(C(F)(F)F)[nH]c(=O)n1	.	43	.	.	.	.
CNC(=O)CSc1nnc(-c2ccco2)n1-c1ccccc1	.	.	.	.	.	101
CCOCCCNc1c2c(nc3cc(-c4ccc(F)cc4)nn13)CCC2	.	43	/	.	.	.
CN(C)CCCNc1c2c(nc3cc(-c4cccc(F)c4)nn13)CCC2	.	.	.	.	.	.
CCCNC(=O)Nc1ccc2c(c1)OC[C@H](C)N(C(=O)c1ccccc1F)C[C@H](C)[C@@H](OC)CN(C)C2=O	/	.	/	.	.	.
SMILES	PDI turbidity	FGF22 binding	UUG fidelity	S100A4 inh HTS	ERp5 inh	SIRT5 block
CCNC(=O)COC(=O)/C=C/c1cccc([N+](=O)[O-])c1	.	43	/	.	.	.
O=C(COC(=O)/C=C/c1cccc([N+](=O)[O-])c1)NCc1ccco1	.	.	/	.	.	.
COc1cc(OC)cc(C(=O)NCc2cc(C)nc3ccccc23)c1	.	44	/	.	.	.
COc1ccc(S(=O)(=O)N(C)C[C@H]2OCCCC[C@@H](C)Oc3ccc(NS(=O)(=O)c4cn(C)cn4)cc3C(=O)N([C@H](C)CO)C[C@@H]2C)cc1	/	.	/	.	.	.
COCC(=O)Nc1ccc2c(c1)C(=O)N(C)C[C@H](OC)[C@@H](C)CN(C(=O)c1ccccc1)[C@@H](C)CO2	/	.	/	.	.	.
COc1ccc(N2C(=O)CC(Nc3ccc(C(=O)O)cc3)C2=O)cc1OC (stereo unspecified)	.	43	/	.	.	.
C/C=C/c1cccc(-c2nc(C(=O)NC3CCC3)cc3c2[C@@H](CCO)N(S(=O)C(C)(C)C)C3)c1 (stereo partly specified)	/	.	.	.	.	22
O=C(Nc1cc(C(F)(F)F)ccc1N1CCOCC1)c1ccncc1	.	.	.	.	/	.
O=C(CNCc1ccccn1)Nc1cc(C(F)(F)F)ccc1N1CCOCC1	.	.	.	.	.	17
C[C@@H]1CCCCO[C@@H](CN(C)C(=O)Nc2ccc(C(F)(F)F)cc2)[C@@H](C)CN([C@@H](C)CO)C(=O)c2cc(N(C)C)ccc2O1	/	.	.	.	.	.
CC(=O)NC(Cc1c[nH]c2ccccc12)C(=O)OCC(=O)N1CCN(S(=O)(=O)c2ccc(Cl)cc2)CC1 (stereo unspecified)	32	.	.	.	.	.
O=C(O)C(Cc1c[nH]c2ccccc12)NS(=O)(=O)c1ccc(Cl)cc1 (stereo unspecified)	.	43	.	.	.	.
COc1ccc(CC(=O)NNC(=O)c2ccc(Br)s2)cc1OC	.	43	.	.	.	.
CCOC(=O)c1csc(NC(=O)c2ccc(OCC)cc2)n1	.	43	/	.	.	.
Cc1csc(NC(=O)c2ccc(S(C)(=O)=O)cc2)n1	.	.	/	.	.	19
COCC#Cc1cnc2c(c1)C(=O)N([C@H](C)CO)C[C@H](C)[C@H](CN(C)C(=O)C1CCC1)O2	/	.	.	133	.	.
COCC#Cc1cnc2c(c1)C(=O)N([C@@H](C)CO)C[C@@H](C)[C@@H](CN(C)C(=O)NC1CCCC1)O2	/	.	.	.	.	.
COCC#Cc1cnc2c(c1)C(=O)N([C@@H](C)CO)C[C@H](C)[C@@H](CN(C)C(=O)C1CCC1)O2	/	.	.	.	.	.
COCC#Cc1cnc2c(c1)C(=O)N([C@H](C)CO)C[C@@H](C)[C@H](CN(C)C(=O)NC1CCCC1)O2	/	.	.	.	59	.
COCC#Cc1cnc2c(c1)C(=O)N([C@@H](C)CO)C[C@H](C)[C@@H](CN(C)C(=O)NC1CCCC1)O2	/	.	.	.	50	.
C/C=C/c1cnc2c(c1)C(=O)N([C@H](C)CO)C[C@@H](C)[C@@H](CN(C)C(=O)NC1CCCC1)O2	.	.	.	.	.	.
C/C=C/c1cnc2c(c1)C(=O)N([C@@H](C)CO)C[C@H](C)[C@@H](CN(C)C(=O)NC1CCCC1)O2	/	.	.	.	.	17
Cc1ccccc1NC(=O)Nc1ccc2c(c1)C(=O)N(C)[C@@H]1CC[C@H](CC(=O)O)O[C@H]1CO2	/	.	.	/	/	/
